Measurements reported in ChEMBL document CHEMBL4364246, “Synthesis and biological evaluation of 5-aminoethyl benzophenanthridone derivatives as DNA topoisomerase IB inhibitors” (Eur J Med Chem, 2019).

System: HCT-116
Experiment: Resistance ratio of GI50 for human HCT116 cells expressing siTOP1 to GI50 for human HCT116 cells by MTT assay
Format: functional

Compound: CNCCn1c(=O)c2cc(OC)c(OC)cc2c2ccc3cc4c(cc3c21)OCO4
- Ratio: 8.9
